# Values of other authors as cited in patent publication US20210100869A1, “COMPOSITIONS AND METHODS OF USING SAME FOR TREATING AMYOTROPHIC LATERAL SCLEROSIS (ALS)” (Immunity Pharma Ltd., priority 2018, published 2021).
# Test system: ALS patients
# Conditions: estimated moderate effect; cited from earlier work
compound,measurement,value
Nc1nc2ccc(OC(F)(F)F)cc2s1 [riluzole],Extension in patient survival,three months extension in patient survival
